Reference: patent publication US20070014810A1, “Inducing cellular immune responses to human papillomavirus using peptide and nucleic acid compositions” (priority 2003, published 2007)

Amino acid sequences for entries named in this document (tags omitted). Residues count along the entry.
UniProt P01920, 33-261: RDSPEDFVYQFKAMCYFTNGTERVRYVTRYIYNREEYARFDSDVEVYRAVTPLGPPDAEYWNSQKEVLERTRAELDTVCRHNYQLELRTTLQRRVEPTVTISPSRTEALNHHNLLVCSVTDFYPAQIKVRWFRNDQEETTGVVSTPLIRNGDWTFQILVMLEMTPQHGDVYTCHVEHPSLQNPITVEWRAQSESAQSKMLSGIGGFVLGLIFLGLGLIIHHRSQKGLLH

Tests used:
[1] = molecular target: HLA-A*0101 (Homo sapiens, UniProt P04439, A114D/A174V/A182V/D101N/D185E/E176A/E190D/L180R/Q94H/R68K/S129P/T187R/V100A/V91M/W191G); experiment: biochemical
[2] = molecular target: HLA-DQB1*0301 (Homo sapiens, UniProt P01909+P01920); experiment: biochemical

`CC(C)C[C@H](NC(=O)[C@@H]1CCCN1C(=O)[C@@H](NC(=O)[C@@H](NC(=O)[C@H](C)NC(=O)[C@@H](NC(=O)[C@@H](N)Cc1ccc(O)cc1)[C@@H](C)O)C(C)C)C(C)C)C(=O)N[C@H](C(=O)N[C@@H](Cc1ccc(O)cc1)C(=O)O)C(C)C` gave an IC50 [1] of 5 nM.
In the case of `C[C@H](NC(=O)[C@H](C)NC(=O)[C@H](Cc1c[nH]cn1)NC(=O)[C@H](C)NC(=O)[C@H](C)NC(=O)[C@H](Cc1c[nH]cn1)NC(=O)[C@H](C)NC(=O)[C@H](C)NC(=O)[C@H](Cc1c[nH]cn1)NC(=O)[C@H](C)NC(=O)[C@H](C)NC(=O)[C@H](Cc1c[nH]cn1)NC(=O)[C@H](C)NC(=O)[C@H](C)NC(=O)[C@H](Cc1c[nH]cn1)NC(=O)[C@H](C)NC(=O)[C@@H](N)Cc1ccc(O)cc1)C(=O)O`, the IC50 [2] is reported as 21 nM.
